Consider 3 compounds from ChEMBL document CHEMBL1135382, “First dual NK(1) antagonists-serotonin reuptake inhibitors: synthesis and SAR of a new class of potential antidepressants” (Bioorg Med Chem Lett, 2002).

By UniProt entry, the sequences of proteins in these tests, tags left out.
UniProt P25103, whole entry: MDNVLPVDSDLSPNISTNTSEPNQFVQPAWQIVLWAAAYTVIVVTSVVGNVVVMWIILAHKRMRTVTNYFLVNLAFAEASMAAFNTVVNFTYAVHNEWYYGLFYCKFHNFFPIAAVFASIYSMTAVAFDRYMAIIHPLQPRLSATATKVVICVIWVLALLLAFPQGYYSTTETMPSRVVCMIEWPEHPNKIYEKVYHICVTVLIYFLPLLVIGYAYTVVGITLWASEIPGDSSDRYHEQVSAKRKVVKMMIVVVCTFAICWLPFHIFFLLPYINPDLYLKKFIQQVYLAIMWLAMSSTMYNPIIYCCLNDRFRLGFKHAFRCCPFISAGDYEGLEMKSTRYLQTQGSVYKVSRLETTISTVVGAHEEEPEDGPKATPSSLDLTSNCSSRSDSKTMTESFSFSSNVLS
UniProt P31652, whole entry: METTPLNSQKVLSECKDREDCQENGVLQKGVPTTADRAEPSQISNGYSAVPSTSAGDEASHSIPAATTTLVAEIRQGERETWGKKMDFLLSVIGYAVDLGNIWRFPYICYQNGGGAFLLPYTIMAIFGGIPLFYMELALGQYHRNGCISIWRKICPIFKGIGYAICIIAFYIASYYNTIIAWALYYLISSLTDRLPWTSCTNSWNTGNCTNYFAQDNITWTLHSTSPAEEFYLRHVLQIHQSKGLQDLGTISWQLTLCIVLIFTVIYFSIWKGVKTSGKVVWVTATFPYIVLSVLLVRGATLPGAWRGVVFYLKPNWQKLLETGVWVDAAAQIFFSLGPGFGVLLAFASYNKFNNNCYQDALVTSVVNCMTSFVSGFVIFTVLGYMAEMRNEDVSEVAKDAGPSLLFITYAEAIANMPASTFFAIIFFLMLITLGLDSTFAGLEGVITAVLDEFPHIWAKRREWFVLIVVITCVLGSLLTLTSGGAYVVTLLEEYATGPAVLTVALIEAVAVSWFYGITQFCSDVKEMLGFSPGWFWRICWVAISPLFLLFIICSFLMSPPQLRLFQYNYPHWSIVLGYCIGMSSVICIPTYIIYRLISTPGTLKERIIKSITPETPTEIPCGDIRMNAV
UniProt P30547, whole entry: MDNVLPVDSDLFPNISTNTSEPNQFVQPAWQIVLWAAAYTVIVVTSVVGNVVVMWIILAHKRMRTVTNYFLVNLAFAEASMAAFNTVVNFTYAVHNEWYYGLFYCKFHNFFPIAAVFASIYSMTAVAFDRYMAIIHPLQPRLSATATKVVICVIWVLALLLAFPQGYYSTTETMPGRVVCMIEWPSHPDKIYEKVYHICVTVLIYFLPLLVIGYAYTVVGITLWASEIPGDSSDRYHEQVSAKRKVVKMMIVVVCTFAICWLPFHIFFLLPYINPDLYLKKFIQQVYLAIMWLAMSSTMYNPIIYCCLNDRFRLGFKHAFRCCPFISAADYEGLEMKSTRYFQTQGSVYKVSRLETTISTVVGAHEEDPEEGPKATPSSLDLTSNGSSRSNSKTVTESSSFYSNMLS

Molecules are shown by their SMILES. Only a part of the results on these compounds is given; other tests are left out.

Usually pA2 stands for a measure of antagonist potency on a negative log scale. High values mean higher antagonist potency, low ones lower antagonist potency.

Series [1] in a line: Lipophilicity. The series is classed as physicochemical.
For series [2], the target named is Substance-P receptor (Homo sapiens, UniProt P25103). Briefly: Binding affinity at human Tachykinin receptor 1 expressed in CHO cells by [3H]-substance P displacement. The series is classed as cell-based. A digest of the protocol:
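Membranes (10–20 μg protein) from CHO cells expressing human NK1 receptor were incubated 60 min at 25 °C in 50 mM Tris–HCl pH 7.4 with 2 mM MgCl2, 100 μg/mL bacitracin and 0.25 nM [3H]substance P.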

Series [3] addresses Sodium-dependent serotonin transporter (Rattus norvegicus, UniProt P31652). In words: Binding affinity at serotonin transporter from rat cerebral cortex by [3H]-paroxetine displacement. The series is classed as tissue-based. A digest of the protocol: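 Rat cerebral cortex membranes (100–200 μg protein) were incubated 120 min at 25 °C in 50 mM Tris–HCl pH 7.4 with 2 mM MgCl2 and 0.05 nM radioligand. Nonspecific binding was defined with 5 μM imipramine.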

Series [4] deals with Substance-P receptor (Cavia porcellus, UniProt P30547). Briefly: inhibiting substance P-induced contraction of the isolated guinea pig ileum.

In turn, `O=C(COc1cc(F)cc(F)c1)N(c1ccc(Cl)c(Cl)c1)C1CCNCC1` returned a Log K' IAM in series [1] of 2.5. For the same compound, the Log IC50 is -5.9 in series [2] and -7.6 in series [3].
In the case of `O=C(COc1cc(Cl)cc(Cl)c1)N(c1ccc(Cl)c(Cl)c1)C1CCNCC1`, the Log K' IAM in series [1] was found to be 3.2. The results for the Log IC50 in series [2] and in series [3] were -7 and -7.5, respectively.
`Cc1cc(C)cc(OCC(=O)N(c2ccc(Cl)c(Cl)c2)C2CCNCC2)c1`: the Log K' IAM in series [1] was 2.7. The Log IC50 was -7.6 in series [2] and -7.5 in series [3]. The compound further showed a pA2 in series [4] of 6.88.
